ChEMBL document CHEMBL5518239, “Recent Advances on Small-Molecule Inhibitors of Lipocalin-like Proteins” (J Med Chem, 2024)

Assay: Selectivity index, ratio of Ki for displacement of fluorescent probe DAUDA from FABP3 (unknown origin) to Ki for displacement of fluorescent probe ANS from FABP7 (unknown origin)

A Ratio Ki of 0.83 was found for O=C(O)[C@H]1[C@H](c2ccccc2)[C@H](C(=O)Oc2cccc(C3=CCOCC3)c2)[C@H]1c1ccccc1 in this work.
